{"source": "paper PMC8779485", "about": "“Implementation and Comparison of Two Pharmacometric Tools for Model-Based Therapeutic Drug Monitoring and Precision Dosing of Daptomycin” (Pharmaceutics, 2022)", "key": {"[1]": {"conditions": "human, in vivo"}, "[2]": {"conditions": "human, in vivo; SD"}}, "note": "Like-named read-outs stand apart in the source and are kept apart here."}
{"smiles": "CCCCCCCCCC(=O)N[C@@H](Cc1c[nH]c2ccccc12)C(=O)N[C@H](CC(N)=O)C(=O)N[C@@H](CC(=O)O)C(=O)N[C@@H]1C(=O)NCC(=O)N[C@@H](CCCN)C(=O)N[C@@H](CC(=O)O)C(=O)N[C@H](C)C(=O)N[C@@H](CC(=O)O)C(=O)NCC(=O)N[C@H](CO)C(=O)N[C@@H]([C@H](C)CC(=O)O)C(=O)N[C@@H](CC(=O)c2ccccc2N)C(=O)O[C@@H]1C", "note": "[daptomycin, Daptomycin]", "values": [{"measurement": "Proportion of patients with Cmin > 24.3 mg/L (overexposed)", "setting": "[1]", "value": 31.9, "unit": "%"}, {"measurement": "Dmax (maximum effective dose associated with Cmin = 24.3 mg/L at steady-state)", "setting": "[1]; SD", "value": "12.0 ± 8.6", "unit": "mg/kg"}, {"measurement": "Dmax (maximum effective dose associated with Cmin = 24.3 mg/L at steady-state)", "setting": "[2]", "value": "14.7 ± 10.7", "unit": "mg/kg"}]}
